Consider one compound from paper PMC8305873, “Design and heterologous expression of a novel dimeric LL37 variant in Pichia pastoris” (Microbial Cell Factories, 2021).

This series relates to human red blood cells. Description: Hemolytic activity assay. The format is cell-based. The settings on record: at the highest peptide concentration (128 μM), 37 °C 1 h, 0.1% Triton X-100 = 100%.

Consider `CC[C@H](C)[C@H](NC(=O)CN)C(=O)NCC(=O)N[C@@H](C)C(=O)N[C@H](C(=O)N[C@@H](CC(C)C)C(=O)N[C@@H](CCCCN)C(=O)N[C@H](C(=O)N[C@@H](CC(C)C)C(=O)N[C@H](C(=O)N[C@H](C(=O)NCC(=O)N[C@@H](CC(C)C)C(=O)N1CCC[C@H]1C(=O)N[C@@H](C)C(=O)N[C@@H](CC(C)C)C(=O)N[C@H](C(=O)N[C@@H](CO)C(=O)N[C@@H](Cc1c[nH]c2ccccc12)C(=O)N[C@H](C(=O)N[C@@H](CCCCN)C(=O)N[C@@H](CCCNC(=N)N)C(=O)N[C@@H](CCCCN)C(=O)N[C@@H](CCCNC(=N)N)C(=O)N[C@@H](CCC(N)=O)C(=O)N[C@@H](CCC(N)=O)C(N)=O)[C@@H](C)CC)[C@@H](C)CC)[C@@H](C)O)[C@@H](C)O)C(C)C)C(C)C` [melittin, reference compound], for which the “hemolysis (blood cells destroyed)” value worked out at 91%.
